In this test the test system is CB1 receptor signaling, WIN55,212 induced ERK phosphorylation in Trex-CHO CB1 receptor cells. Nature of the test: ERK activation assay (western blot). Type of test: cell-based, human. Conditions: IgG 300 nM; WIN55,212 100 nM, 10 and 15 minutes. (In general: Immunoblotting shows a protein as a band on a membrane.)

For the compound `Cc1c(C(=O)NN2CCCCC2)nn(-c2ccc(Cl)cc2Cl)c1-c1ccc(Cl)cc1` [Rimonabant, reference compound], the “block of WIN55,212 induced ERK phosphorylation” value was “inhibited”.

(Values after patent publication US11421026B2, “Antibodies that bind human cannabinoid 1 (CB1) receptor” (BIRD ROCK BIO, Inc., priority 2015, dated 2022).)
